Results on 38 compounds are retold here after patent US10023575B2, “Cyclic ether derivatives of pyrazolo[1,5-a]pyrimidine-3-carboxyamide” (Boehringer Ingelheim International GmbH, priority 2015, dated 2018).

Chains of the proteins cited; added tags and fusions are not shown. Lines headed by an entry give the natural chain unless they say otherwise; changes in a name come on top.
UniProt O00408, whole entry, species assumed: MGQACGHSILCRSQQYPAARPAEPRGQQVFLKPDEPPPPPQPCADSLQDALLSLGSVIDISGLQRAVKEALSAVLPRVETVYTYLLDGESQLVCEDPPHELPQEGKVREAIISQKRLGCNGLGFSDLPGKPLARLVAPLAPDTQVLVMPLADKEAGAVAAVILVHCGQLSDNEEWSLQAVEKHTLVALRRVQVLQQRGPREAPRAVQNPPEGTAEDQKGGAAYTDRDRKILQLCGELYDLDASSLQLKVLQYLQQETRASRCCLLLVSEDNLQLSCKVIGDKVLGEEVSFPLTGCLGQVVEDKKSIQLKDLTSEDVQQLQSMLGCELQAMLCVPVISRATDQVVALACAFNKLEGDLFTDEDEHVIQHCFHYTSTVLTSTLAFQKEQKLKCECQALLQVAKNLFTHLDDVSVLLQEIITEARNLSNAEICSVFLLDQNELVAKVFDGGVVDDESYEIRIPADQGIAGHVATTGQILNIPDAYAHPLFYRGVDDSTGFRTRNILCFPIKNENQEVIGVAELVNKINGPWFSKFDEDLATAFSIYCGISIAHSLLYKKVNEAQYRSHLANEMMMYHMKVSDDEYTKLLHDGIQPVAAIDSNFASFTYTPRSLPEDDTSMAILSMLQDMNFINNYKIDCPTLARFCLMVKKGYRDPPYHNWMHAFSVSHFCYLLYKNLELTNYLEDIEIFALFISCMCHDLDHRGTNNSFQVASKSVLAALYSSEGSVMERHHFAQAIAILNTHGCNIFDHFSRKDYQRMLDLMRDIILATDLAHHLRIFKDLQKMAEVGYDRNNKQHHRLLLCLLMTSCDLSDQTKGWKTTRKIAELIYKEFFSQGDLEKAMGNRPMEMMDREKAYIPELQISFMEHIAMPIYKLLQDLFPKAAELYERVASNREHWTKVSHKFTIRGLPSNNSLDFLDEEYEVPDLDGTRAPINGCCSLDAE
UniProt Q9Y233: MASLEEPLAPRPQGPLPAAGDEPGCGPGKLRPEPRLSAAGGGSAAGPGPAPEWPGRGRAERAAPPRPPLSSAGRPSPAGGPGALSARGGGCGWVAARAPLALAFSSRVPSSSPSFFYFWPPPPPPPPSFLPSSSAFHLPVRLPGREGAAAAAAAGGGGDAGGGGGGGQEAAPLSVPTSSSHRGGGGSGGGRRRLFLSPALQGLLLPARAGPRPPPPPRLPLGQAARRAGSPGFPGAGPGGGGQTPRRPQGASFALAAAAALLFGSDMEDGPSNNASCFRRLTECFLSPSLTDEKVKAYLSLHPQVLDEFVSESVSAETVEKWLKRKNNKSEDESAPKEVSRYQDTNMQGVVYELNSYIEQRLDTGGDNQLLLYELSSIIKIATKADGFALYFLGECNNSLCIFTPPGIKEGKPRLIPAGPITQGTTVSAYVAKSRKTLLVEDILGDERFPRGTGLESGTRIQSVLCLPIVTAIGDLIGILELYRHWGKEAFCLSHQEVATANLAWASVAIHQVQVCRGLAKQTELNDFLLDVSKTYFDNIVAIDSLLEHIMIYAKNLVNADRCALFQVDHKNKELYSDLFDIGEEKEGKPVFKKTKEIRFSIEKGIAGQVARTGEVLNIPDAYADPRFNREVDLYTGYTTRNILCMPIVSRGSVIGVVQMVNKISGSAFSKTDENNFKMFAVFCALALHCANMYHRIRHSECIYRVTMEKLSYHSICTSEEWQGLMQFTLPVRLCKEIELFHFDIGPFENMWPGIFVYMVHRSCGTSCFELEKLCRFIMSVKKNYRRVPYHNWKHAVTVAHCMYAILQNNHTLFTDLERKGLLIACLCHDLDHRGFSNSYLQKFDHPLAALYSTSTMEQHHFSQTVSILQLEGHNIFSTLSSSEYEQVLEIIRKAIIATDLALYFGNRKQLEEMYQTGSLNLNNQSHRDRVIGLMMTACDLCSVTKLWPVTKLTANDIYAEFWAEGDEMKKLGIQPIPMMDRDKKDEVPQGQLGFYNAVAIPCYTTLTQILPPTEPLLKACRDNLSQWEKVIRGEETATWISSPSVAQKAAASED

One assay concerns the target PDE 2A (Homo sapiens (Human), UniProt O00408). The assay is described as follows: Phosphodiesterase (PDE) 2A assay with fluorescent substrate (IMAP, fluorescence polarization). Format: biochemical. The following applies: labeled cAMP 30 nM, read-out: PDE2 IC50. The source says: (§1) a) Phosphodiesterase (PDE) 2A and 10 Assay with Fluorescent Substrate
(§2) The PDE reaction cleaves cAMP to AMP. The IMAP system (Molecular Device) using fluorescence polarization (FP) as detection principle was used to measure enzyme activity. A fluorescent labeled cAMP was used as substrate for the reaction, generating a labeled AMP. The fluorescent AMP binds specifically to the large M(III)-based nano-particles which reduces the rotational speed of the substrate and thus increases its polarization.
(§3) The inhibition of PDE 2A or 10 enzyme activity was assessed using IMAP-Phosphodiesterase-cAMP fluorescence labeled substrate (Molecular Devices, Order No. R7506), IMAP TR-FRET screening express (Molecular Devices, Order No. R8160, the TR-FRET component will not be used) and PDE 2A or PDE10 protein expressed upon baculovirus infection in SF9 cells. The cells were incubated after infection for ˜3 days and protein production was confirmed by Western Blot. The cells were collected by centrifugation and the pellet frozen in liquid nitrogen before it was resuspended in PBS containing 1% Triton X-100 and protease inhibitors. After 45 min incubation on ice, the cell debris was removed by centrifugation (13.000 rpm, 30 min).
(§4) All reactions were performed in 384 well plates, Perkin Elmer black optiplates and IMAP reaction buffer with 0.1% Tween20 (kit component)
(§5) Compounds were serial diluted in DMSO. With an intermediate dilution step with reaction buffer DMSO concentration was reduced to achieve 1% DMSO in the assay reaction. Setup of the assay started with 10 μl enzyme (˜10 ng/well, depending on prep. batch), 5 μl compound, reaction was started by addition of 5 μl labeled cAMP (30 nM, final concentration), immediately mixed for 15 seconds on a Eppendorf mixmate (2000 rpm) followed by an incubation at room temperature for 90 minutes in the dark. Reaction is stopped by adding of 60 μl binding buffer for FP/cAMP (kit component). After at least 90 min of further incubation (room temperature, dark) the assay was measured at 485 nm excitation/525 nm emission in an Envision multilabel reader (PerkinElmer).
(§6) Each assay plate contained wells with vehicle controls (1% DMSO) for the measurement of non-inhibited reaction (=100% control) and wells without enzyme as 0% controls.
(§7) The analysis of the data was performed by calculation of the percentage of inhibition in the presence of test compound compared to the vehicle control samples (100% control, no inhibition) and a low control (0% control, no enzyme).
(§8) IC50 values are calculated with Assay Explorer or other suited software based on curve fitting of results of at least 8 different compound concentrations. The compound concentrations may vary according to the needed range, but typically cover the range between 10 μM and 0.1 pM.
(In general: Polarisation of emitted light reports the rotation of a fluorescent probe.)

The target in a further assay is PDE10 (Homo sapiens (Human), UniProt Q9Y233). The assay is described as follows: Phosphodiesterase (PDE) 10 assay with fluorescent substrate (IMAP, fluorescence polarization). In kind it is biochemical. The conditions noted are these: labeled cAMP 30 nM.
Excerpt: as §1, §2, §3, §4, §5, §6, §7, §8

`Cc1cnc2c(C(=O)NC3(c4ccc(C(F)(F)F)cc4F)COCC3O)cnn2c1` (single isomer, unassigned) [Example 75]: on PDE 2A, the IC50 is 42 nM.

`Cc1cnc2c(C(=O)NC3(c4ccc(C(F)(F)F)cc4F)COCC3(C)O)cnn2c1` (single isomer, unassigned) [Example 93b]: the IC50 on PDE 2A was 1520 nM.

As to `Cc1cnc2c(C(=O)NC3(c4ccc(C(F)(F)F)cc4F)COCC3O)cnn2c1` (single isomer, unassigned) [Example 73], the half-inhibitory concentration (IC50) on PDE 2A was found to be 1140 nM.

On to `Cc1cnc2c(C(=O)NC3(c4ccc(C(F)(F)F)cc4F)CCOCC3(C)O)cnn2c1` (single isomer, unassigned) [Example 83a], for which the IC50 on PDE 2A was 5.9 nM; against PDE10 it was greater than 10000 nM.

As to `Cc1cnc2c(C(=O)NC3(c4ccc(C(F)(F)F)cc4F)COCC3O)cnn2c1` (single isomer, unassigned) [Example 72], the IC50 at PDE 2A worked out at 122 nM.

With `Cc1nn2cc(C3CC3)cnc2c1C(=O)NC1(c2ncc(C(F)(F)F)cc2F)CCOCC1(C)O` (racemic) [Example 62], the IC50 at PDE10 is 7160 nM.

For the compound `Cc1cnc2c(C(=O)NC3(c4ccc(C(F)(F)F)cc4F)CCOCC3(C)O)cnn2c1` (single isomer, unassigned) [Example 83b], the results for the IC50 at PDE 2A and on PDE10 were 1820 nM and greater than 10000 nM, respectively.

In the case of `CC1(O)COCCC1(NC(=O)c1cnn2cc(C3CC3)cnc12)c1ccc(C(F)(F)F)cc1F` (single isomer, unassigned) [Example 86b], the IC50 on PDE 2A worked out at 2550 nM; against PDE10, 9940 nM.

Turning to `Cc1nn2cc(C3CC3)cnc2c1C(=O)NC1(c2ncc(C(F)(F)F)cc2F)CCOC1` (single isomer, unassigned) [Example 80a], the IC50 at PDE 2A is 313 nM.

For the compound `Cc1cnc2c(C(=O)NC3(c4ccc(C(F)(F)F)cc4F)CCOCC3O)cnn2c1` (racemic) [Example 46], the IC50 at PDE 2A is 5.7 nM.

In the case of `Cc1cnc2c(C(=O)NC3(c4ccc(C(F)(F)F)cc4)CCOC3)cnn2c1` (racemic) [Example 36], the IC50 on PDE 2A was 180 nM.

With `CC1(O)COCCC1(NC(=O)c1cnn2cc(C3CC3)cnc12)c1ccc(C(F)(F)F)cc1F` (racemic) [Example 53], the 50% inhibitory concentration (IC50) at PDE 2A is 100 nM; at PDE10, greater than 10000 nM.

With `Cc1cnc2c(C(=O)NC3(c4ccc(C(F)(F)F)cc4F)CCOCC3O)cnn2c1` (single isomer, unassigned) [Example 81a], on PDE 2A, the IC50 amounted to 3.4 nM.

With `Cc1cnc2c(C(=O)NC3(c4ccc(C(F)(F)F)cn4)CCOC3)c(C)nn2c1` (racemic) [Example 44], the IC50 at PDE10 turned out to be 9680 nM.

`Cc1nn2cc(C3CC3)cnc2c1C(=O)NC1(c2ncc(C(F)(F)F)cc2F)CCOC1` (single isomer, unassigned) [Example 80b]: at PDE 2A, the 50% inhibitory concentration (IC50) was 75 nM.

As to `CC1(O)COCCC1(NC(=O)c1cnn2cc(C3CC3)cnc12)c1ccc(C(F)(F)F)cc1F` (single isomer, unassigned) [Example 86a], the values for the IC50 on PDE 2A and on PDE10 were 3.9 nM and greater than 10000 nM, respectively.

Regarding `Cc1cnc2c(C(=O)NC3(c4ccc(C(F)(F)F)cc4F)COCC3(C)O)cnn2c1` (single isomer, unassigned) [Example 92b], the IC50 at PDE 2A was 712 nM.

In the case of `Cc1cnc2c(C(=O)NC3(c4ccc(C(F)(F)F)cc4F)CCOCC3(C)O)cnn2c1` (single isomer, unassigned) [Example 84a], the IC50 on PDE 2A is 120 nM; against PDE10 it was greater than 10000 nM.

As for `Cc1cnc2c(C(=O)NC3(c4ccc(C(F)(F)F)cc4F)CCOCC3O)cnn2c1` (racemic) [Example 47], the concentration for half-maximal inhibition (IC50) at PDE 2A stood at 240 nM.

In the case of `Cc1nn2cc(C3CC3)cnc2c1C(=O)NC1(c2ccc(C(F)(F)F)nc2)CCOCC1O` (single isomer, unassigned) [Example 88b], the half-maximal inhibitory concentration (IC50) on PDE 2A is 3030 nM; at PDE10, greater than 10000 nM.

Consider `Cc1cnc2c(C(=O)NC3(c4ccc(C(F)(F)F)cc4F)COCC3(C)O)cnn2c1` (single isomer, unassigned) [Example 93a], for which the IC50 on PDE 2A is 11 nM.

For `Cc1cnc2c(C(=O)NC3(c4ccc(C(F)(F)F)cc4F)COCC3(C)O)cnn2c1` (stereo not drawn) [Example 58], the IC50 at PDE 2A amounted to 14 nM.

Consider `Cc1cnc2c(C(=O)NC3(c4ncc(C(F)(F)F)cc4F)CCOC3)c(C)nn2c1` (racemic) [Example 41], for which, at PDE10, 7950 nM corresponded to half-maximal inhibition (IC50).

With `Cc1cnc2c(C(=O)NC3(c4ccc(C(F)(F)F)cc4F)COCC3(C)O)cnn2c1` (single isomer, unassigned) [Example 92a], the IC50 on PDE 2A was determined as 93 nM.

Regarding `CC1(O)COCCC1(NC(=O)c1cnn2cc(C3CC3)cnc12)c1ccc(C(F)(F)F)cc1F` (stereo not drawn) [Example 54], on PDE 2A, the concentration for half-maximal inhibition (IC50) amounted to 12 nM.

With `Cc1cnc2c(C(=O)NC3(c4ccc(C(F)(F)F)cc4F)CCOCC3(C)O)cnn2c1` (stereo not drawn) [Example 55], the IC50 at PDE 2A was 21 nM; on PDE10, greater than 10000 nM.

For `Cc1cnc2c(C(=O)NC3(c4ccc(C(F)(F)F)cc4F)CCOCC3O)cnn2c1` (single isomer, unassigned) [Example 81b], the IC50 at PDE 2A was 149 nM.

In the case of `Cc1nn2cc(C3CC3)cnc2c1C(=O)NC1(c2ncc(C(F)(F)F)cc2F)CCOCC1(C)O` (single isomer, unassigned) [Example 91a], the IC50 at PDE10 worked out at 7700 nM.

For `Cc1nn2cc(C3CC3)cnc2c1C(=O)NC1(c2ncc(C(F)(F)F)cc2F)CCOC1` (racemic) [Example 40], the IC50 at PDE 2A came out at 84 nM.

For `Cc1cnc2c(C(=O)NC3(c4ccc(C(F)(F)F)cc4F)COCC3O)cnn2c1` (single isomer, unassigned) [Example 74], the IC50 at PDE 2A came to 2530 nM.

For the compound `O=C(NC1(c2ccc(C(F)(F)F)cc2F)CCCOC1)c1cnn2cc(C3CC3)cnc12` (racemic) [Example 30], the IC50 at PDE 2A is 12 nM; at PDE10, greater than 10000 nM.

For the compound `Cc1cnc2c(C(=O)NC3(c4ccc(C(F)(F)F)cc4F)CCOCC3(C)O)cnn2c1` (single isomer, unassigned) [Example 84b], the values for the IC50 at PDE 2A and on PDE10 were 2790 nM and greater than 10000 nM, respectively.

As for `Cc1nn2cc(C3CC3)cnc2c1C(=O)NC1(c2ccc(C(F)(F)F)nc2)CCOCC1O` (racemic) [Example 51], the figures for the IC50 on PDE 2A and on PDE10 were 59 nM and 9040 nM, respectively.

In the case of `Cc1cnc2c(C(=O)NC3(c4ccc(C(F)(F)F)nc4)CCOC3)c(C)nn2c1` (racemic) [Example 43], at PDE10, half-maximal inhibition (IC50) was put at 6860 nM.

On to `Cc1nn2cc(C3CC3)cnc2c1C(=O)NC1(c2ccc(C(F)(F)F)nc2)CCOCC1O` (single isomer, unassigned) [Example 88a], for which the half-inhibitory concentration (IC50) at PDE 2A was determined as 32 nM; at PDE10, 7560 nM.

Consider `Cc1nn2cc(C3CC3)cnc2c1C(=O)NC1(c2ccc(C(F)(F)F)cn2)CCOC1` (racemic) [Example 45], for which, on PDE 2A, the 50% inhibitory concentration (IC50) is 239 nM.

As for `CC1(O)COCCC1(NC(=O)c1cnn2cc(C3CC3)cnc12)c1ccc(C(F)(F)F)cc1F` (single isomer, unassigned) [Example 85a], the values for the IC50 at PDE 2A and against PDE10 were 130 nM and greater than 10000 nM, respectively.

In turn, `Cc1nn2cc(C3CC3)cnc2c1C(=O)NC1(c2ncc(C(F)(F)F)cc2F)CCOCC1(C)O` (single isomer, unassigned) [Example 91b] yielded an IC50 on PDE10 of 5670 nM.

By IC50 is commonly meant the concentration at which inhibition is half-maximal.
